# Reference: patent publication US20110195433A1 (priority 2007, published 2011)
# Protein sequences, listed by entry. Tags and fused reporters are not part of them. Lines headed by an entry give the natural chain unless they say otherwise; changes in a name come on top.
# UniProt P41145: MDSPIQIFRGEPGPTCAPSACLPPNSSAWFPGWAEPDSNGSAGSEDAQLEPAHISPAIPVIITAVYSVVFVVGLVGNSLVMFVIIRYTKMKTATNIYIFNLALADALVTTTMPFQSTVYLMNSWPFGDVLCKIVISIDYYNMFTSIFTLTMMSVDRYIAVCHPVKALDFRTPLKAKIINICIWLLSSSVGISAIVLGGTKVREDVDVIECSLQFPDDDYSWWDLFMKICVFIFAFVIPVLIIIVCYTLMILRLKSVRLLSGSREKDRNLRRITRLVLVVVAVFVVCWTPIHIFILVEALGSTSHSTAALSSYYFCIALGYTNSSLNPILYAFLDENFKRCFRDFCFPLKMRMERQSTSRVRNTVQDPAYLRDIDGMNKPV
# UniProt P35372: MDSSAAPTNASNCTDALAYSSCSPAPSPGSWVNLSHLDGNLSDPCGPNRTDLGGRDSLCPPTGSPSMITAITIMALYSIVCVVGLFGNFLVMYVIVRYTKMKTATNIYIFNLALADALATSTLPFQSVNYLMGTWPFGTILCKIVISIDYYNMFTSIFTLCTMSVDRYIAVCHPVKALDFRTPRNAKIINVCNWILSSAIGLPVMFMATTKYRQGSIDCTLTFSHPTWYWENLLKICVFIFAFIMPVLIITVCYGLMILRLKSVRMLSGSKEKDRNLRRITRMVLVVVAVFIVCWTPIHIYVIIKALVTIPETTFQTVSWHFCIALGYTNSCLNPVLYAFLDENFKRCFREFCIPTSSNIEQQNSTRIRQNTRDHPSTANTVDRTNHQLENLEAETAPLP
# UniProt P32300: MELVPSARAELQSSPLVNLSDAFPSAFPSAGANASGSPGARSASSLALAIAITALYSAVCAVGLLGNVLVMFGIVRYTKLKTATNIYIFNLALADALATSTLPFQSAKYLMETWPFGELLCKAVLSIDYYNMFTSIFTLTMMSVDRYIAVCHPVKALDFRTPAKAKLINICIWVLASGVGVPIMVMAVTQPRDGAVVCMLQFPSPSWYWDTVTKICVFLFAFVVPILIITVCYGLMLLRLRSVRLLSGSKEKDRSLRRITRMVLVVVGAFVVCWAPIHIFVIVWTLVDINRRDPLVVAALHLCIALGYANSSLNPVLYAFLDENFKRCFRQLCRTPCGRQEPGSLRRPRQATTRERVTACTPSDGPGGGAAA
# Read-outs that look alike come from different tables or passages of the source.
# Key:
# human KOR [1] = molecular target: T1, human KOR (Homo sapiens, UniProt P41145); assay: agonist-stimulated [35S]GTPγS binding in KOR membranes; conditions: 300 nM U50,488H
# [2] = test system: opioid pretreated animals; assay: diarrhea in opioid pretreated animals
# human MOR [3] = molecular target: T2, human MOR (Homo sapiens, UniProt P35372); conditions: for effect on basal [35S]GTPγS binding: DAMGO- or morphine-pretreated MOR membranes
# human KOR [4] = molecular target: T1, human KOR
# mouse DOR [5] = molecular target: T3, mouse DOR (Mus musculus, UniProt P32300); assay: [[…] binding (saturation and competitive) in DOR membranes
# human MOR [6] = molecular target: T2, human MOR; assay: agonist-stimulated [35S]GTPγS binding in MOR membranes; conditions: 1 μM DAMGO
# mouse DOR [7] = molecular target: T3, mouse DOR; assay: basal [35S]GTPγS binding in DOR cell membranes with or without agonist pretreatment; type: biochemical; conditions: DPDPE-pretreated DOR membranes
# human KOR [8] = molecular target: T1, human KOR; assay: [[…] binding (saturation and competitive) in KOR membranes
# human MOR [9] = molecular target: T2, human MOR; assay: [[…] binding (saturation and competitive) in MOR membranes
# mouse DOR [10] = molecular target: T3, mouse DOR; assay: agonist-stimulated [35S]GTPγS binding in DOR membranes; conditions: 30 nM DPDPE
# [11] = morphine-pretreated KOR membranes
substance,measurement,setting,value
6β-naltrexamide,antagonistic property against agonist-stimulated [35S]GTPγS binding,human KOR [1],full antagonists
same,diarrhea,[2],less diarrhea
same,inhibition of the inverse agonist effect of naloxone,human MOR [3]; DAMGO (agonist)-pretreated MOR membranes,inhibited
same,effect on basal [35S]GTPγS binding,human MOR [3],did not decrease
same,effect on basal [35S]GTPγS binding,human MOR [3]; listed as 6β-nalrexamide,no inverse agonist effects
same,pharmacological property at KOR,human KOR [4]; U69593 pretreated membranes,remains neutral
same,inhibition of the inverse agonist effect of 6β-naltrexol,human KOR [4]; U-69593-pretreated KOR membranes,inhibited
same,pharmacological property at KOR,human KOR [4]; after agonist pretreatment,remained neutral regardless of agonist pretreatment
same,effect on basal [35S]GTPγS binding,human KOR [4]; [11],no inverse agonist effects
same,inhibition of the inverse agonist effect of naloxone,human KOR [4]; [11],inhibited
same,"binding affinity, fold less potent than naloxone",mouse DOR [5],7- to 10 fold
same,antagonistic property against agonist-stimulated [35S]GTPγS binding,human MOR [6],full antagonists
same,inhibition of the inverse agonist effect of naloxone,mouse DOR [7],inhibited
same,"binding affinity, fold less potent than naloxone",human KOR [8],2- to 7 fold
same,"binding affinity, fold higher (more potent) than naloxone",human MOR [9],3 fold
same,"binding affinity, fold less potent than naltrexone",human MOR [9],4 fold
same,antagonistic property against agonist-stimulated [35S]GTPγS binding,mouse DOR [10],full antagonists
